# Test results from PubChem BioAssay AID651768 (National Center for Advancing Translational Sciences (NCATS), 2012).
# Amino acid sequences for entries named in this document (tags omitted).
# UniProt Q14191, whole entry: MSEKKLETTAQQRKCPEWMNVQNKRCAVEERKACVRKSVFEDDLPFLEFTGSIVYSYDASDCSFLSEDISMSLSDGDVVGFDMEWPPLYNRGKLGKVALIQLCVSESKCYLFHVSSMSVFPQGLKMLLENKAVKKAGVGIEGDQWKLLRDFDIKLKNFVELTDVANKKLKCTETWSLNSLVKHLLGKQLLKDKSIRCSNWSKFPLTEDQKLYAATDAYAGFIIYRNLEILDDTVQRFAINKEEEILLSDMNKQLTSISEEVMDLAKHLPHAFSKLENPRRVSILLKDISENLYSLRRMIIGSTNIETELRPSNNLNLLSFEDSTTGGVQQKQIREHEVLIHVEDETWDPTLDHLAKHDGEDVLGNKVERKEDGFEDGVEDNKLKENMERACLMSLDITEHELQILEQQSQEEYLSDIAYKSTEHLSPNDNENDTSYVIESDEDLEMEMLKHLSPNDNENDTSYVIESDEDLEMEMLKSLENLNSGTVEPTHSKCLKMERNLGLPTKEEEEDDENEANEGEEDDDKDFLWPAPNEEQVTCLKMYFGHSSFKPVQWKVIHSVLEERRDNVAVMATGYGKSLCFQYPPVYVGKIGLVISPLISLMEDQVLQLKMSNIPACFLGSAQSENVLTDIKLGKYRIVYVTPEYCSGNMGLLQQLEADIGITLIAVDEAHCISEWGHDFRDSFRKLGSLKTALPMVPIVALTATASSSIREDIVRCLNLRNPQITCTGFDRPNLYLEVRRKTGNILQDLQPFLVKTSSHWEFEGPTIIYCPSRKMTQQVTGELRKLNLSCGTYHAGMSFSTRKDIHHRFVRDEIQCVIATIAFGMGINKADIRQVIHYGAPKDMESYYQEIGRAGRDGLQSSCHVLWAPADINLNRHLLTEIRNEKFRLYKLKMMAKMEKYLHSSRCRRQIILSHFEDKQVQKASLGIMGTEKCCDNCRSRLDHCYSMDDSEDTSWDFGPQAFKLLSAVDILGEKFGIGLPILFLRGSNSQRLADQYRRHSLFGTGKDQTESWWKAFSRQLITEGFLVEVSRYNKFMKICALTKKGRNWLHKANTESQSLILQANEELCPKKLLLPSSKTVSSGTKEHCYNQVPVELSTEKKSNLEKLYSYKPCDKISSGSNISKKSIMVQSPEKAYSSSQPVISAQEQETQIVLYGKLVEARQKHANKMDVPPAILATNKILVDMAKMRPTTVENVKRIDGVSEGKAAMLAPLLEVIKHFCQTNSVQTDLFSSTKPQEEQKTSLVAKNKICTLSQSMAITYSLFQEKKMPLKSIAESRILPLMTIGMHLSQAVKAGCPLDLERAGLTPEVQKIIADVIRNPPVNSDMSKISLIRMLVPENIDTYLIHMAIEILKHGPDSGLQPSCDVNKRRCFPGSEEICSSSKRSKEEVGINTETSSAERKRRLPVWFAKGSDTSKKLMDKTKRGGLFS
# This is a selection; strong and weak results do not stand in their true shares. The source made the active and inactive calls. Calls follow the shape of the dose curve; as a rule, active = well fitted inhibition curve with a large enough effect; inconclusive = small, poorly fitted or top-dose-only effect; inactive = no such curve, though single readings can be large or run the other way.
# Biological target: Bifunctional 3'-5' exonuclease/ATP-dependent helicase WRN (Homo sapiens) (UniProt Q14191)
# Test: qHTS for Inhibitors of WRN Helicase; also: nearly all actives have a fitted effect of over 55% in size
# Conditions: WRN helicase unwinding, fluorescent forked duplex, kinetic; at 114 µM (top of the series)
# Description: Inhibition of DNA repair is proposed as a strategy for combating cancer. Synthetic lethality is an approach that exploits preexisting DNA repair deficiencies in certain tumors to develop inhibitors of DNA repair pathways that compensate for the tumor-associated DNA repair deficiency. […] We will employ an optimized high-throughput screening assay that utilizes a fluorescence intensity modulation scheme with a fluorophore and quencher positioned near one another within a duplex deoxyoligonucleotide that contains a single forked structure. […]
# Three muL of reagents (buffer in columns 3 and 4 as negative controls; WRN at 20 nM final concentration in columns 1 and 2 as positive controls; columns 5-48 as test reactions) will be dispensed into a 1536-well Greiner black plate via solenoid-valve based nanoliter dispensers. […] Plates will be incubated for 15 min at room temperature, and then 1 µL of substrate (100 nM forked duplex oligonucleotide and 2 mM ATP final concentrations) will be added to start reaction, and plate will be transferred into a ViewLux high-throughput CCD imager where reaction progress is measured in kinetic mode using standard red-fluorescence optics (excitation filter 525 nm, emission filter 598 nm).
# % is scaled to controls: 0 for no effect and ±100 for the full control effect.
row,SMILES,"activity change, negative = inhibition"
1,CCC(=O)N(c1ccccc1)C1(COC)CCN(CCc2cccs2)CC1,inactive: 8.27%
2,CCC(=O)N(c1ccccc1)C1(COC)CCN(CCn2nnn(CC)c2=O)CC1,inactive: 3.7%
